The test system of one data set is yeast. As to conditions: aniline metabolites in yeast; cited from earlier work.
In a further data set the test system is S. cerevisiae. Description: DEL. As to conditions: DEL assay, IC80 concentration.

“Also recorded” adds a separate entry of the source.

The values that follow come from publication PMC5748281 (ACS Omega, 2017).

As to `Nc1ccc(O)cc1` [4-aminophenol], the “increase in deletion frequencies over untreated control cells” value in the data set with yeast is reported as “greater than 2 fold”.
In the case of `Cc1cc(C(C)(C)C)c(O)c(C(C)(C)C)c1` [BHT, 2,6-di-tert-butyl-4-methyl-phenol], the “deletion formation / genotoxicity in words” value with S. cerevisiae is given as “no significant genotoxicity; also recorded: do not increase the deletion formation”.
